The nature of the data set: Pharmacokinetic study in rats after oral administration of MOL extract. The note with it: rat plasma. The data set is classed as in vivo, Sprague-Dawley rats.

The record followed here is paper PMC11255104 (Food Chemistry: X, 2024).

As for Kaempferol-3-O-rutinoside, the “biological / elimination half-life (in words)” value is recorded as “longer biological half-life than other components”.
